Permeability data for macrocyclic peptides

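Lipid, pH, incubation time, direction and concentration are not recorded in the data file. Other peptides of the study may be missing here. Peptides that the database sets to -10, its floor, are left out.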

PAMPA is the parallel artificial membrane permeability assay, which has no cells and reads passive diffusion. Permeability is given as log10 of P in cm/s; higher (less negative) is more permeable.

PAMPA (log10 cm/s) | structure (SMILES)
-5.46 | CC(C)C[C@H]1NC(=O)[C@H](C)NC(=O)[C@H](Cc2ccccc2)NC(=O)[C@H](CC(C)C)N(C)C(=O)[C@H]2CCCN2C(=O)[C@H](CC(C)C)N(C)C1=O
-5.27 | CC(C)C[C@@H]1NC(=O)C[C@H](Cc2ccccc2)NC(=O)[C@H](Cc2ccccc2)NC(=O)[C@H](CC(C)C)N(C)C(=O)[C@H]2CCCN2C(=O)[C@@H](CC(C)C)NC1=O
-5.25 | CC(C)C[C@@H]1C(=O)N[C@@H](Cc2ccccc2)C(=O)N[C@H](C)C(=O)N(C)[C@@H](CC(C)C)C(=O)N(Cc2ccccc2)CC(=O)N2CCC[C@@H]2C(=O)N1C
-5.73 | CC(C)C[C@H]1NC(=O)[C@H](C)NC(=O)[C@H]2CCCN2C(=O)[C@H](Cc2ccccc2)NC(=O)[C@H](CC(C)C)N(C)C(=O)[C@H]2CCCN2C(=O)[C@H](CC(C)C)N(C)C1=O
-6.05 | CCCN1CC(=O)N(C)[C@@H](CC(C)C)C(=O)N[C@H](CC(C)C)C(=O)N2CCC[C@H]2C(=O)N[C@@H](CC(C)C)C(=O)N[C@@H](Cc2ccccc2)C(=O)N2CCC[C@H]2C1=O
-5.39 | CC(C)C[C@@H]1NC(=O)C[C@H](Cc2ccccc2)NC(=O)[C@@H]2CCCN2C(=O)[C@H](Cc2ccccc2)NC(=O)[C@H](CC(C)C)N(C)C(=O)[C@@H]2CCCN2C(=O)[C@@H](CC(C)C)NC1=O
-5.90 | CC(C)C[C@@H]1NC(=O)[C@@H](CC(C)C)N(C)C(=O)[C@H](C)NC(=O)[C@@H]2CCCN2C(=O)[C@H](Cc2ccccc2)NC(=O)[C@@H](CC(C)C)N(C)C(=O)[C@H]2CCCN2C1=O
-5.59 | CC(C)C[C@@H]1C(=O)N2CCC[C@@H]2C(=O)N(C)[C@@H](CC(C)C)C(=O)N[C@@H](Cc2ccccc2)C(=O)N2CCC[C@@H]2C(=O)N(C)[C@H](C)C(=O)N(C)[C@@H](CC(C)C)C(=O)N1C
-5.44 | CC(C)C[C@@H]1C(=O)N(Cc2ccccc2)CC(=O)N2CCC[C@@H]2C(=O)N(C)[C@@H](CC(C)C)C(=O)N[C@@H](Cc2ccccc2)C(=O)N2CCC[C@@H]2C(=O)N[C@@H](Cc2ccccc2)CC(=O)N1C
-6.23 | CC(C)C[C@H]1NC(=O)[C@@H](C)N(C)C(=O)[C@H]2CCCN2C(=O)[C@H](Cc2ccccc2)NC(=O)CN(Cc2ccccc2)C(=O)[C@@H]2CCCN2C(=O)C[C@H](Cc2ccccc2)NC1=O
-6.30 | CC(C)C[C@H]1NC(=O)[C@@H]2CCCN2C(=O)[C@@H](CC(C)C)NC(=O)[C@H](CC(C)C)N(C)C(=O)[C@H](C)NC(=O)[C@H](Cc2ccccc2)NC1=O
-5.23 | CC(C)C[C@H]1NC(=O)[C@H](CC(C)C)N(C)C(=O)[C@@H](C)NC(=O)[C@H](Cc2ccccc2)NC(=O)[C@H](CC(C)C)N(C)C(=O)[C@H]2CCCN2C1=O

The last 2 entries again:

structure (SMILES) | PAMPA (log10 cm/s)
CC(C)C[C@H]1NC(=O)[C@@H]2CCCN2C(=O)[C@@H](CC(C)C)NC(=O)[C@H](CC(C)C)N(C)C(=O)[C@H](C)NC(=O)[C@H](Cc2ccccc2)NC1=O | -6.30
CC(C)C[C@H]1NC(=O)[C@H](CC(C)C)N(C)C(=O)[C@@H](C)NC(=O)[C@H](Cc2ccccc2)NC(=O)[C@H](CC(C)C)N(C)C(=O)[C@H]2CCCN2C1=O | -5.23

Data: CycPeptMPDB; original report Townsend et al. 2020, doi:10.26434/chemrxiv.13335941.v1.